Kd data for one compound are collected here from US4880941A, “Trittum labelled compound, its preparation and its use in the determination of the affinity of retinoids for their cellular receptor” (priority 1986, dated 1989).

Protein sequences, listed by entry. Tags and fused reporters are not part of them.
UniProt P62966, whole entry: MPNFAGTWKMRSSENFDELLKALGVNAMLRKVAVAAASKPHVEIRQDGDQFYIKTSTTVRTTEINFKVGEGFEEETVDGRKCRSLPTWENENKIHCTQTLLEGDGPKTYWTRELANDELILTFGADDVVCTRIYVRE

In assay [1] the target is T1, cRABP (cellular Retinoic Acid-Binding Protein) (Rattus norvegicus, UniProt P62966). The assay is described as follows: Competition test of cold ligand against radioactive ligand for fixation on cRABP. To be noted: Kd of the cold ligand, calculated from IC50 of competition curve.
The target of assay [2] is T1, cRABP (cellular Retinoic Acid-Binding Protein). The assay is described as follows: Saturation test: fixation of ligand on soluble cRABP of rat testicle homogenate. Set-up: a homogenate of rat testicles (organ rich in cRABP); from tissue; host or cells: rat testicles (homogenate), inferred from the saturation test. To be noted: 2 hours incubation, nonlinear regression (Clark equation), read-out: Kd (dissociation constant at equilibrium). As for the experimental part:
The fixation of the compound of the present invention with cRABP has been characterized by saturation tests. The total fixation (nonspecific +specific) (curva a), is obtained by incubation of increasing concentrations (up to a maximum of 50 nM) of the compound of the present invention with a constant quantity (0.3 ml) of a homogenate of rat testicles (organ rich in cRABP). The nonspecific fixation of the tritiated compound is determined in parallel, by the measurement of the fixation with increasing concentrations of the radioactive ligand in the presence of a large excess (1 μM) of retinoic acid (curve c). An incubation time for 2 hours is necessary for the establishment of equilibrium conditions.
Once equilibrium is reached, the cRABP-tritiated ligand complex is separated from the nonlinked ligand by filtration on an exclusion gel Sephadex G25 column (Bio-Rad econo columns, 0.5×20 cm): the complex is eluted (elution peak at 2.5 ml), while the nonlinked ligand is retained in total on the column. A total separation is thus effected between the linked and nonlinked product. The eluation is made directly in the scintillation tubes and the radioactivity is measured by counting.
The results thus obtained are analyzed by nonlinear regression using as a model the Clark equation: (A. J. Clark, The Mode of Action of Drugs on Cells; A. Arnold and Co., London, 1933). […]

The Kd is the concentration at which binding is half-saturated. On to `CC1=C(/C=C/C(C)=C/C=C/C(C)=C/C(=O)O)C(C)(C)CCC1` [retinoic acid], for which the figures for the Kd in assay [1] (radioactive ligand: compound of Example 1), in assay [1] (radioactive ligand: tritiated retinoic acid) and in assay [2] were 4 nM, 4 nM and 2 ± 0.8 nM, respectively.
